IC50 data for 1 molecule are collected here from ChEMBL document CHEMBL3856182, “How much successful are the medicinal chemists in modulation of SIRT1: A critical review” (Eur J Med Chem, 2016).

Protein sequences, listed by entry. Tags and fused reporters are not part of them. Lines headed by an entry give the natural chain unless they say otherwise; changes in a name come on top.
UniProt P06700: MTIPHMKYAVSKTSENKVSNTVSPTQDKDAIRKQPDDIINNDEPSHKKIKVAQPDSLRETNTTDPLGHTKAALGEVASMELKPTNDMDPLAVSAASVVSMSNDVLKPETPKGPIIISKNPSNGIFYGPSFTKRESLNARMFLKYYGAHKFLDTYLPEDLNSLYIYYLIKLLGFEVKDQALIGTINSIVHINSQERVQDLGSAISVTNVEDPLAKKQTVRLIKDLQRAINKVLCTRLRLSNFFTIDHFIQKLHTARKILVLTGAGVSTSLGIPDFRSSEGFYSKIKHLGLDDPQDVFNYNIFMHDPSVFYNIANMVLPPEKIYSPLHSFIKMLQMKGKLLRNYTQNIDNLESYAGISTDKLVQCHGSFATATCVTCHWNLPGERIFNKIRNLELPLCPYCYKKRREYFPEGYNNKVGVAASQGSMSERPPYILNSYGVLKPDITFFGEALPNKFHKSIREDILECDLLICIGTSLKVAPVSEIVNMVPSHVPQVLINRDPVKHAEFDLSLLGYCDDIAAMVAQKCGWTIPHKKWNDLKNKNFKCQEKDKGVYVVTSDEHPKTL

The structures appear in SMILES notation.

For the assay, the target named is NAD-dependent histone deacetylase SIR2 (Saccharomyces cerevisiae S288c, UniProt P06700). The assay is described as follows: Inhibition of recombinant yeast Sir2p using acetylated HeLa histones as substrate measured after 2 hrs in presence of NAD by scintillation counting method.

A word on the IC50: it is the point on the concentration scale where inhibition reaches its midpoint. With `CC(NC(=O)c1ccccc1/N=C/c1c(O)ccc2ccccc12)c1ccccc1` (stereo unspecified) [SIRTINOL], the IC50 stood at 68 µM.
